± gives the expanded uncertainty stated by the source.
Assay: activity coefficient (dimensionless); of the first substance listed, at infinite dilution; xn = mol fraction of the nth substance listed
Details: 101.33 kPa, Liquid, Chromatography, x1 = 0

CCCCOCCCC [dibutyl ether] + C[n+]1ccn(CCCO)c1.N#CN=C=[N-]
activity coefficient (318.15 K): 228 ± 16 | activity coefficient (328.15 K): 218 ± 15 | activity coefficient (338.15 K): 208 ± 14 | activity coefficient (348.15 K): 200 ± 14 | activity coefficient (358.15 K): 193 ± 13 | activity coefficient (368.15 K): 185 ± 13

CCCCOCCCC [dibutyl ether] + C[N+]1(CCCO)CCOCC1.N#C[N-]C#N
activity coefficient (308.15 K): 637 ± 44 | activity coefficient (318.15 K): 574 ± 40 | activity coefficient (328.15 K): 514 ± 35 | activity coefficient (338.15 K): 465 ± 32 | activity coefficient (348.15 K): 426 ± 29 | activity coefficient (358.15 K): 389 ± 27 | activity coefficient (368.15 K): 359 ± 25
